Measured affinities in a library of Ab-14 light chain variants

Binding partner: SARS-CoV-2 spike HR2 peptide, sequence PDVDLGDISGINAS.

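The starting antibody came from a phage panning campaign against this peptide. This is the validation round: designs drawn from the data on random variants, tested in the same kind of assay. Group labels follow the data file (En: ensemble of fine-tuned language models; GP: Gaussian process model; HC: hill climbing; Gen: genetic algorithm; Gibbs: Gibbs sampling; a sequence that several methods proposed may carry one label only). Affinity was read by AlphaSeq, a pooled yeast mating assay with surface-displayed partners. Pairs that bind mate more often; barcode pairs of the diploids are counted by sequencing. Each replicate has its own calibration line, from reference interactions of the BCL2 family. There are six technical replicates.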

Ab-14 is the parent antibody, in scFv form: VH, then a (GGGGS)3 linker, then VL. The heavy chain is unchanged in all variants.
VH: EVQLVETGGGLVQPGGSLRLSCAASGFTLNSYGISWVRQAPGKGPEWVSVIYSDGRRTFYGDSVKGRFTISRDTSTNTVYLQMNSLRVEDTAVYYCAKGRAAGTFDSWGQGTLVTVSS
VL: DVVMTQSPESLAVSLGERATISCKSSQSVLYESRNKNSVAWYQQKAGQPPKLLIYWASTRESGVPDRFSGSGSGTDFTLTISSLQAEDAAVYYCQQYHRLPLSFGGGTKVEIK

The parent's light chain CDRs are KSSQSVLYESRNKNSVA, WASTRES, QQYHRLPLS; each variant's own CDRs replace them letter for letter. Variants here have more than six changes. Values are apparent Kd, the geometric mean of the replicates that gave a signal; lower means stronger binding. "nd" means that the variant was in the library but no mating with the target was seen in any replicate; the authors take this as a sign of poor binding, and no number exists.

- VLPDHELMLESQIHSIA / NETKRME / QQYSRLPLM [En_Gibbs] = 2.0 nM (6 of 6 replicates)
- KMSQSMWYESRNSNSVA / NASNRLS / QQYHRLPLS [GP_Gibbs] = 670 pM (6 of 6 replicates)
- KIYELGKGNIKTNNNIA / QTDIRML / QSYNRLPLS [En_Gibbs] = 4.1 nM (6 of 6 replicates)
- KISMTYRYESQASNSIA / EMTTREE / QSYHRLPLS [En_HC] = 15 nM (6 of 6 replicates)
- KVSQSVNVGQKNKNSLA / EMSTREF / QDYHRLPLS [En_HC] = 6.7 nM (6 of 6 replicates)
- KWEYSVLGESRNKNAVA / EASQREQ / QQYHRLPLS [GP_Gibbs] = 1.4 nM (6 of 6 replicates)
- SLVQEKSVGDYNAGNVA / AGNQLSV / QQYNRLPLI [En_Gibbs] = 1.5 nM (6 of 6 replicates)
- IITQSVMQESRNKSNVA / NTSEREG / QQYDRLPLI [En_HC] = 45 nM (6 of 6 replicates)
- KISQLVNFEGKNKNSVA / QMSTREN / QQYDRLPLS [En_HC] = 6.3 nM (6 of 6 replicates)
- KLGAVTSYEMQNKNSVA / QMTTRES / QQYHRLPLS [En_HC] = 1.3 nM (6 of 6 replicates)
- KVDQSEMLESRWKNSVA / NASTRCS / QQYHRLPLS [GP_Gibbs] = 1.5 nM (6 of 6 replicates)
- KLQMSWLMQSRMKNSVA / HASMRES / QQYHRLPLS [GP_Gibbs] = 7.5 nM (6 of 6 replicates)
- KFDQSWLLESRNKNSVA / HASQRCS / QQYHRLPLS [GP_Gibbs] = 1.7 nM (6 of 6 replicates)
- KLSGIMRLEQKNKSNIA / EVNERSE / QQYDRLPLS [En_Gen] = 3.9 nM (6 of 6 replicates)
- KFQQSQLYESRMMNSVA / NASKRMS / QQYHRLPLK [GP_Gibbs] = 1.4 nM (6 of 6 replicates)
- MISNVMNTLTRVGNNVA / DLTEREV / QQYFRLPLS [En_Gen] = 22 nM (4 of 6 replicates)
- KFNDAWPGDIQNNQNIA / SADTLNH / QQYAKLPLS [En_Gibbs] = 5.7 nM (6 of 6 replicates)
- KIGMTLNMMMRKKNNVA / DLVTREN / QQYHRLPLS [En_Gen] = 12 nM (6 of 6 replicates)
- MISQLYNMGQFAINSVA / QASERNE / QQYDRLPLQ [En_Gen] = 29 nM (6 of 6 replicates)
- KQDQSCPGEQRNKNSVA / SASTRCE / QQYHRLPLS [GP_Gibbs] = 1.6 nM (6 of 6 replicates)
- NFSQMVLTGSTLRQSVA / HASTREE / QQYHRLPLI [En_HC] = 12 nM (6 of 6 replicates)
- IVSQLMIWGMHAKNSIA / EGETRLN / QQYDRLPLF [En_Gen] = 68 nM (4 of 6 replicates)
- IVSQLMLWGLHAKNSIA / EAETRPN / QQYDRLPLM [En_Gen] = nd (0 of 6 replicates)
- TISQLMLYESRNKNNVA / GTSTREQ / QCYHRLPLS [En_HC] = 200 nM (5 of 6 replicates)
- NVGQSMDGETRNKNSVA / HQSTRED / QHYHRLPLS [En_HC] = 62 nM (6 of 6 replicates)
- QLAVDRLQEYEMGDAIA / GKTLRED / QQYYRLPLS [En_Gibbs] = 2.1 nM (6 of 6 replicates)
- HMLYQFNTGSLRVNNVA / EGATVLD / QQYFRLPIT [En_Gibbs] = 21 nM (6 of 6 replicates)
- HISQSVGMTSRNKNSVA / ENSTREA / QQYDRLPLS [En_HC] = 550 nM (3 of 6 replicates)
- ILMQPYKELGAAKNNIA / DGSIRLD / QQYHRLPLV [En_Gibbs] = 5.1 nM (6 of 6 replicates)
- KLYQSMGYLSRNKQSIA / DMSRREN / QQYHRLPLS [En_HC] = 3.7 nM (6 of 6 replicates)
- KQQFSGMMGSRNKNSVA / SASKRES / QQYHRLPLS [GP_Gibbs] = 130 nM (6 of 6 replicates)
- KLSMSYRYESENKNSIA / ELVTRMS / QQYNRLPLS [En_HC] = 19 nM (5 of 6 replicates)
- KLSATYRFESQNKNNIA / EMTTRES / QCYHRLPLS [En_HC] = 5.2 nM (5 of 6 replicates)
- MITQLMNMGQFAINSVA / QASIRNE / QQYDRLPLV [En_Gen] = 44 nM (6 of 6 replicates)
- TIGQVMHYESRNKNSVA / QTSVREE / QDYDRLPLS [En_HC] = 42 nM (6 of 6 replicates)
- RMNKFMSEITEARNSIA / GAEHLAQ / QHYHRLPLS [En_Gibbs] = 38 nM (6 of 6 replicates)
- KQSQSVLYGERDGNSVA / NASQRLS / QQYHRLPLS [GP_Gibbs] = 5.8 nM (6 of 6 replicates)
- KISQVFMMTGKNKNSVA / NALTRVS / QQYHRLPLS [En_HC] = 1.1 nM (6 of 6 replicates)
- KFSQQVLYESRQKNSVA / NASQRFE / QQYHRLPLS [GP_Gibbs] = 890 pM (6 of 6 replicates)
- MISQLMNMGQFAINSVA / QAEIRNS / QQYDRLPLI [En_Gen] = nd (0 of 6 replicates)
- KLEQGFLYEERNKNSVA / SASQRES / QQYHRLPLS [GP_Gibbs] = 370 pM (6 of 6 replicates)
- HMNHEYLEYSNYENNIA / HGSQRLY / QQYSHLPLS [En_Gibbs] = 2.0 nM (6 of 6 replicates)
- QVQYAPGESLRHTQSIA / DVNIKDM / QQYARLPLS [En_Gibbs] = 4.1 nM (6 of 6 replicates)
- KMSQSDLMEMRNMNSVA / NASTREM / QQYHRLPLS [GP_Gibbs] = 22 nM (6 of 6 replicates)
- FIQGNYNDKYQVSNSIA / DEAHLMA / QQYDLLPLS [En_Gibbs] = 210 nM (3 of 6 replicates)
- KIEEYTKGDRYFQYSIA / QGDIREK / QQYGQLPLT [En_Gibbs] = 44 nM (6 of 6 replicates)
- KLVWSDLYESRNKNNVA / GASQRES / QQYHRLPLS [GP_Gibbs] = 770 pM (6 of 6 replicates)
- KLMMSGLYESRNSNSVA / EASTREQ / QDYHRLPLS [GP_Gibbs] = 2.0 nM (6 of 6 replicates)

The opening 4 entries, copied out:

| CDR-L1 | CDR-L2 | CDR-L3 | group | Kd | detected |
|---|---|---|---|---|---|
| VLPDHELMLESQIHSIA | NETKRME | QQYSRLPLM | En_Gibbs | 2.0 nM | 6 of 6 |
| KMSQSMWYESRNSNSVA | NASNRLS | QQYHRLPLS | GP_Gibbs | 670 pM | 6 of 6 |
| KIYELGKGNIKTNNNIA | QTDIRML | QSYNRLPLS | En_Gibbs | 4.1 nM | 6 of 6 |
| KISMTYRYESQASNSIA | EMTTREE | QSYHRLPLS | En_HC | 15 nM | 6 of 6 |

The authors averaged sequences with at least three values out of six and counted those with two or fewer as poor binders. The parent sequence was in this pool as ten entries: three were never detected, three once, and four in most replicates, with averages from 2.2 nM to 240 nM. A sequence measured in both rounds can read differently, since the two assays cover different ranges. As a blank, each scFv also met three strains without target: over all light chain designs, 4% of these pairings were detected, typically at 430 nM and seldom below 38 nM.

Values reported by Li et al. 2023, doi:10.1038/s41467-023-39022-2 (FLAb copy).